Source: patent US20230405002A1, “COMBINATIONS OF DIACYLGLYCEROL ACYLTRANSFERASE 2 INHIBITORS AND ACETYL-COA CARBOXYLASE INHIBITOR” (Pfizer Inc., priority 2020, published 2023)

Tested on: adults with non-alcoholic fatty liver disease (NAFLD)
Details: NAFLD patients; ACCi 15 mg BID, DGAT2i 300 mg BID

Compound: COc1cc(C(=O)N2CCC3(CC2)CC(=O)c2c(cnn2C(C)C)C3)cc(-c2ccc(C(=O)O)cc2)n1 [Compound A, 4-(4-(1-isopropyl-7-oxo-1,4,6,7-tetrahydrospiro[indazole-5,4′-piperidine]-1′-carbonyl)-6-methoxypyridin-2-yl)benzoic acid]
- subjects exceeding triglyceride threshold >400 mg/dl, total number (%): 11 (37.9) n (%)
- subjects exceeding triglyceride threshold >600 mg/dl, total number (%): 4 (13.8) n (%)
- subjects exceeding triglyceride threshold >800 mg/dl, total number (%): 3 (10.3) n (%)
